The test system of one assay is PNPLA3. Briefly: RNA-seq of compound-treated primary human hepatocytes: PNPLA3 expression. It counts as cell-based.
For the next assay, the system named is PNPLA5. The assay can be described thus: RNA-seq of compound-treated primary human hepatocytes: PNPLA5 expression. The format is cell-based. The text has this:
This protocol is a modified version of the following protocols: MagMAX mirVana Total RNA Isolation Kit User Guide (Applied Biosystems # MAN0011131 Rev B.0), NEBNext Poly(A) mRNA Magnetic Isolation Module (E7490), and NEBNext Ultra Directional RNA Library Prep Kit for Illumina (E7420) (New England Biosystems # E74901).
All obtained reads from each sample were mapped against the human genome (hg19 build) using STAR_2.5.2b, which allows mapping across splice sites by reads segmentation (Dobin et al., Bioinformatics (2012) 29 (1): 15-21, which is hereby incorporated by reference in its entirety). The uniquely mapped reads were subsequently assembled into transcripts guided by reference annotation (RefSeq gene models) (Pruitt et al., Nucleic Acids Res. 2012 January; 40(Database issue): D130-D35, which is incorporated by reference in its entirety) with Cuffnorm v2.2.1 (Trapnell et al., Nature Protocols 7, 562-578 (2012), which is hereby incorporated by reference in its entirety). The expression level of each gene was quantified with normalized FPKM (fragments per kilobase of exon per million mapped fragments). […]
RNA-seq was performed to determine the effects of the compounds on PNPLA3 expression in hepatocytes. Fold change was calculated by dividing the level of expression in the cell system that had been perturbed by the level of expression in an unperturbed system. […]

Data on one molecule can be found in patent US20200208128A1, “METHODS OF TREATING LIVER DISEASES” (CAMP4 THERAPEUTICS CORPORATION, priority 2017, published 2020).

B1: BMP2 (protein, UniProt P12643 283-396, looked up)
Bone morphogenetic protein 2: QAKHKQRKRLKSSCKRHPLYVDFSDVGWNDWIVAPPGYHAFYCHGECPFPLADHLNSTNHAIVQTLVNSVNSKIPKACCVPTELSAISMLYLDENEKVVLKNYQDMVVEGCGCR
With B1, in the assay on PNPLA3, the “Upregulation of PNPLA3 in the RNA-seq study” value was “best upregulators”. For the same molecule, the “Upregulation of PNPLA5 in the RNA-seq study” value with PNPLA5 was “best upregulators”.
